Assay results: PubChem BioAssay (NCI)
The entries are a selection whose mix differs from that of the whole data set.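 Note: values are percent growth. 100 is the growth of untreated cells, values between 100 and 0 indicate rising inhibition; between -100 and 0 indicates cell death.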 Activity calls are given as the source filed them. Rule for the calls: active = growth percent below 10; inactive = the rest.

Legend:
Experiment in all cases: NCI-60 one-dose screen, 48 h (100 = growth as untreated, 0 = no growth, -100 = all killed)
Conditions in all cases: 10 µM unless noted
NCI-H23 lung = system: NCI-H23 lung
NCI-H226 lung = system: NCI-H226 lung
NCI-H322M lung = system: NCI-H322M lung
HOP-62 NSCLC = system: HOP-62 NSCLC
NCI-H460 lung = system: NCI-H460 lung
NCI-H522 lung = system: NCI-H522 lung
A549/ATCC NSCLC = system: A549/ATCC NSCLC
786-0 renal = system: 786-0 renal
COLO 205 colon = system: COLO 205 colon
DU-145 prostate = system: DU-145 prostate
K-562 leukemia = system: K-562 leukemia
MALME-3M melanoma = system: MALME-3M melanoma
MDA-MB-231 breast = system: MDA-MB-231 breast
RXF 393 renal = system: RXF 393 renal
SF-268 CNS = system: SF-268 CNS
SF-295 CNS = system: SF-295 CNS
SF-539 CNS = system: SF-539 CNS
UACC-257 melanoma = system: UACC-257 melanoma
M14 melanoma = system: M14 melanoma
HOP-92 NSCLC = system: HOP-92 NSCLC

Measured: growth

O=[As](O)(c1ccc(O)cc1)c1ccccc1O
inactive: NCI-H23 lung 95.8% | NCI-H226 lung 99.6% | NCI-H322M lung 92.1% | HOP-62 NSCLC 96.6% | NCI-H460 lung 106% | NCI-H522 lung 97% | A549/ATCC NSCLC 103% | 786-0 renal 94.9% | COLO 205 colon 140% | DU-145 prostate 106% | K-562 leukemia 62.4% | MALME-3M melanoma 93.2% | MDA-MB-231 breast 93.8% | RXF 393 renal 92.9% | SF-268 CNS 99.4% | SF-295 CNS 101% | SF-539 CNS 93% | UACC-257 melanoma 103% | M14 melanoma 94.8%

ClC1(Cl)SC(Cl)(Cl)C(Cl)(Cl)C1(Cl)Cl
inactive: NCI-H23 lung 93.8% | NCI-H226 lung 105% | NCI-H322M lung 91.9% | HOP-62 NSCLC 100% | NCI-H460 lung 108% | NCI-H522 lung 81.8% | A549/ATCC NSCLC 108% | 786-0 renal 103% | COLO 205 colon 113% | DU-145 prostate 102% | K-562 leukemia 99% | MALME-3M melanoma 92.6% | MDA-MB-231 breast 130% | RXF 393 renal 105% | SF-268 CNS 99.6% | SF-295 CNS 77.9% | SF-539 CNS 105% | UACC-257 melanoma 118% | M14 melanoma 102%

ClCC1CS1 (stereo not given)
inactive: NCI-H23 lung 107% | NCI-H226 lung 102% | NCI-H322M lung 87.4% | HOP-62 NSCLC 103% | NCI-H460 lung 105% | A549/ATCC NSCLC 107% | 786-0 renal 98.7% | COLO 205 colon 111% | DU-145 prostate 103% | K-562 leukemia 102% | MALME-3M melanoma 96.4% | MDA-MB-231 breast 110% | RXF 393 renal 107% | SF-268 CNS 101% | SF-295 CNS 96.7% | SF-539 CNS 107% | UACC-257 melanoma 110% | M14 melanoma 100%

COC(=O)C1(C)COP(=O)(NCc2ccccc2)OC1 (stereo not given)
inactive: NCI-H23 lung 96.4% | NCI-H226 lung 113% | NCI-H322M lung 111% | NCI-H460 lung 110% | NCI-H522 lung 108% | A549/ATCC NSCLC 101% | 786-0 renal 103% | COLO 205 colon 118% | DU-145 prostate 115% | K-562 leukemia 90.1% | MALME-3M melanoma 104% | MDA-MB-231 breast 111% | RXF 393 renal 121% | SF-268 CNS 102% | SF-295 CNS 106% | SF-539 CNS 108% | UACC-257 melanoma 99.5% | M14 melanoma 94.5%

C/C(N)=N\P(=O)(OCc1ccccc1)OCc1ccccc1
inactive: NCI-H23 lung 97.7% | NCI-H322M lung 99.1% | HOP-62 NSCLC 105% | NCI-H460 lung 108% | HOP-92 NSCLC 102% | NCI-H522 lung 100% | A549/ATCC NSCLC 95.6% | 786-0 renal 103% | COLO 205 colon 111% | DU-145 prostate 125% | K-562 leukemia 103% | MDA-MB-231 breast 103% | RXF 393 renal 105% | SF-268 CNS 114% | SF-295 CNS 84.5% | SF-539 CNS 102% | UACC-257 melanoma 79.5% | M14 melanoma 94.9%

O=P1(N(CCCl)CCCl)NCCC(C(F)(F)F)O1 (stereo not given)
inactive: NCI-H23 lung 99.7% | NCI-H322M lung 111% | HOP-62 NSCLC 99.8% | NCI-H460 lung 94.1% | HOP-92 NSCLC 93.6% | NCI-H522 lung 99.2% | A549/ATCC NSCLC 98.1% | 786-0 renal 101% | COLO 205 colon 103% | DU-145 prostate 99.3% | K-562 leukemia 119% | MALME-3M melanoma 88.3% | MDA-MB-231 breast 99.3% | RXF 393 renal 143% | SF-268 CNS 101% | SF-295 CNS 101% | SF-539 CNS 96.1% | UACC-257 melanoma 103% | M14 melanoma 94.7%

CN(CCCl)CC1OC(O)C(O)C(O)C1O (stereo not given)
inactive: NCI-H23 lung 105% | NCI-H226 lung 94.6% | HOP-62 NSCLC 98.6% | NCI-H460 lung 107% | HOP-92 NSCLC 98% | A549/ATCC NSCLC 94.4% | 786-0 renal 101% | COLO 205 colon 110% | DU-145 prostate 108% | K-562 leukemia 102% | MALME-3M melanoma 104% | MDA-MB-231 breast 102% | RXF 393 renal 103% | SF-268 CNS 104% | SF-295 CNS 110% | SF-539 CNS 94% | UACC-257 melanoma 90.4% | M14 melanoma 99.1%

COC(=O)C1(C)COP(=O)(Nc2ccccc2)OC1 (stereo not given)
inactive: NCI-H23 lung 99.6% | NCI-H226 lung 113% | NCI-H322M lung 97.6% | NCI-H460 lung 105% | NCI-H522 lung 88.6% | A549/ATCC NSCLC 107% | 786-0 renal 97.3% | COLO 205 colon 113% | DU-145 prostate 105% | K-562 leukemia 75.7% | MALME-3M melanoma 92.5% | MDA-MB-231 breast 108% | RXF 393 renal 104% | SF-268 CNS 103% | SF-295 CNS 98.3% | SF-539 CNS 112% | UACC-257 melanoma 109% | M14 melanoma 95.8%

N/C(=N/[N+](=O)[O-])N(CCBr)N=O
inactive: NCI-H23 lung 102% | NCI-H226 lung 95.9% | NCI-H322M lung 93.3% | HOP-62 NSCLC 97.7% | NCI-H460 lung 106% | A549/ATCC NSCLC 93% | 786-0 renal 95.1% | COLO 205 colon 99.6% | DU-145 prostate 104% | K-562 leukemia 86.2% | MALME-3M melanoma 102% | MDA-MB-231 breast 109% | RXF 393 renal 109% | SF-268 CNS 95.2% | SF-295 CNS 99.2% | SF-539 CNS 102% | UACC-257 melanoma 96.6% | M14 melanoma 104%
